Experiments:
μ opioid receptor = μ opioid receptor (Homo sapiens, UniProt P35372); test: radioisotope ligand competitive binding assay, μ opioid receptor (MOR); conditions: read-out: μ IC50; [3H]DAMGO 0.5 nM, cell membrane of stably transfected cells; tested form: HCl
δ opioid receptor = δ opioid receptor (Homo sapiens, UniProt P41143); test: radioisotope ligand competitive binding assay, δ opioid receptor (DOR); conditions: read-out: δ IC50; [3H]-DADLE 0.5 nM, cell membrane of stably transfected cells; tested form: HCl
Excerpt: (§1) Through the radioisotope ligand competitive binding assay, IC50 of the compound was used as an indicator to evaluate the affinity of the compound to κ and δ opioid receptors.
(§2) (1) Reagents • The cell membrane was extracted from stably transfected cells constructed by WuXi AppTec, Shanghai. • 3H-diprenophrine (PerkinElmer, Cat: NET1121250UC, Lot: 2143599) • 3H-DAMGO (PerkinElmer, Cat: NET902250UC, Lot: 2139100) • 3H-DADLE (PerkinElmer, Cat: NET648250UC, Lot: 2060549) • Tris base (Sigma, Cat: T6066-1KG), prepare 1M stock and adjust pH to 7.4. • 0.5M EDTA (Invitrogen, Cat: 15575-038) • 1M MgCl2 (Sigma, Cat: M1028-100 ml) • PEI (Poly ethyleneimine) (Sigma, Cat: P3143) • Microscint 20 cocktail (PerkinElmer, Cat: 6013329) • Naltrindole (Sigma, Cat; N115) • (±)trans-U-50488 (Sigma, Cat: D8040) • DAMGO (Sigma, Cat: E7384)
(§3) (1) 1 μL of the test compounds, negative control (i.e., DMSO) and positive control (i.e., non-specific binding well compound), after being prepared, were respectively transferred to a 96-well plate; […]
(§4) (9) The radioactive signal value CPM was read using MicroBeta2;
(§5) (10) The data was analyzed with Prism 5. The percentage inhibition rate was calculated with the calculation formula: % Inh=(1-Background subtracted Assay value/Background subtracted HC value)*100.

The chains behind the UniProt entries cited, without tags or fusion partners.
UniProt P35372, whole entry: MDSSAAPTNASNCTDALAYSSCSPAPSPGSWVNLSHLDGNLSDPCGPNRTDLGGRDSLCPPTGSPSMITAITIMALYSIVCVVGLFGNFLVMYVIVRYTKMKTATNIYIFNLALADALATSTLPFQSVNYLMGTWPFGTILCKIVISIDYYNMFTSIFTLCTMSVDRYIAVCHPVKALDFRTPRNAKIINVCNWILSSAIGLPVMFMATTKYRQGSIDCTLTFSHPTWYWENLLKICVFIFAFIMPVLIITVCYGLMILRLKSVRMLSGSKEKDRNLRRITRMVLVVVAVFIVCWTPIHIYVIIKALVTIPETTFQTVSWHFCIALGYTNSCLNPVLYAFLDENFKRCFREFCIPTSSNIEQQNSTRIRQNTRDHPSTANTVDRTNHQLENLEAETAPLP

κ opioid receptor = κ opioid receptor (Homo sapiens, UniProt P41145); test: radioisotope ligand competitive binding assay, κ opioid receptor (KOR); conditions: read-out: κ IC50; [3H]Diprenorphine 0.3 nM, cell membrane of stably transfected cells; tested form: HCl
Excerpt: as §1, §2, §3, §4, §5

Compound	IC50 (μ opioid receptor) [µM]	IC50 (δ opioid receptor) [µM]	IC50 (κ opioid receptor) [µM]
CN(Cc1ccccc1)[C@H]1[C@H]2CCCCC[C@]1(C)c1cc(O)ccc1C2	< 0.01	0.01 to 0.1	< 0.01
CCCN[C@H]1[C@H]2CCCCC[C@]1(C)c1cc(O)ccc1C2	< 0.01	0.1 to 1	0.01 to 0.1
